In patent publication US20070014736A1, “Methods of delivering corticotroph-derived glycoprotein hormone” (priority 2005, published 2007):

Tests used:
TSHR = test: Binding of 125I-CGH and 125I-TSH to BHK cells expressing the TSHR; set-up: species or system murine or human
Method: (§1) Radiolabeled rhCGH and human pituitary-derived TSH (BiosPacific, Emeryville, Calif.) were prepared with ^125I-Bolton Hunter Reagent (Amersham Pharmacia Biotech, Buckinghamshire, UK) according to the manufacturer's instructions. Fifty μg of protein was radiolabeled to specific activities of 9000-14,000 cpm/ng with 89-97% of the radioactivity precipitating with 10% TCA. Bioactivity of each preparation of ^125I-CGH and ^125I-TSH was measured using BHK cells transfected with a CRE-luciferase reporter construct and the human TSHR. […] BHK cells expressing murine or human TSHRs were cultured in Dulbecco's Modified Eagle's Medium [DMEM (high glucose)] containing 5% fetal bovine serum, 1% Glutamax, 1% sodium pyruvate, 250 nM methotrexate, and Geneticin ( 1/100). Cells were seeded on day 0 at a density of 4,000 cells/cm^2 and were used on days 4-5 by which time the cell number had increased to about 1×10^5 cells/cm^2. Plates of cells were placed on ice and washed twice with 1.0-2.0 ml of ice-cold PBS. The washes were discarded and each well was incubated with the indicated concentration of ^125I-CGH or ^125I-TSH in 0.1 mL/cm^2 of Medium B [DMEM (no bicarbonate), 0.02M Hepes, pH 7.4, 1.0 mg BSA/ml]. Specific binding was determined in the presence (nonspecific binding) and absence (total binding) of unlabeled rhCGH (25.0 μg/ml) or TSH (10 μg/ml). Binding reactions were terminated by removing the binding medium and the cell monolayers were washed three times with 1.0-2.0 ml of ice-cold PBS containing 1.0 mg/ml BSA and twice with 1.0-2.0 ml of ice cold albumin-free PBS. Cells were solubilized in 1.0 ml of 1.0N NaOH for 10 min at room temperature and cell-associated radioactivity was determined in a gamma counter. The measured radioactivity was normalized to cell number that was determined on plates of cells cultured in parallel. Binding data were analyzed by non-linear regression using Prizm 3.0 (GraphPad Software, San Diego, Calif.).

[1] = tested on: parental BHK cells lacking the TSHR; test: Binding of radioligands to parental BHK cells; conditions: data not shown
Method: as §1, with “Cells were seeded on day 0 at a density of 4,000 cells/cm^2 and were used on days 4-5 by which time the cell number had increased to about 1×10^5 cells/cm^2. Plates of cells were placed on ice and washed twice with 1.0-2.0 ml of ice-cold PBS. The washes were discarded and each well was incubated with the indicated concentration of ^125I-CGH or ^125I-TSH in 0.1 mL/cm^2 of Medium B [DMEM (no bicarbonate), 0.02M Hepes, pH 7.4, 1.0 mg BSA/ml].” left out, “Binding reactions were terminated by removing the binding medium and the cell monolayers were washed three times with 1.0-2.0 ml of ice-cold PBS containing 1.0 mg/ml BSA and twice with 1.0-2.0 ml of ice cold albumin-free PBS.” left out, “Calif.). […]” for “Calif.).”

human TSHR = molecular target: T1, human TSHR (Homo sapiens, UniProt P16473); test: Bioactivity in BHK cells with CRE-luciferase reporter and human TSHR; assay type: cell-based; conditions: CRE-luciferase reporter
T1 construct: expressed in transfected cells; host or cells: BHK cells

bioactivity compared to unlabeled counterpart (human TSHR)	Substance	reduction of the amount of 125I-CGH bound by unlabeled competitor (TSHR; increasing amounts of unlabeled protein)	binding to parental BHK cells lacking the TSHR [1]	Bmax (TSHR; single site model) [fmol/10^6 cells]	sites per cell (TSHR; single site model)
	rhTSH: unlabeled recombinant human thyroid-stimulating hormone used as competitor [reference compound]	neither unlabeled rhTSH (FIG. 1C) nor unlabeled rhGPHA2 nor rhGPHB5 (data not shown) reduced the amount of ^125I-CGH bound			
no significant differences	^125I-TSH: human pituitary-derived TSH radiolabeled with 125I-Bolton Hunter Reagent [reference compound]		Little or no binding	178	about 107,000 sites per cell
